# Results: PubChem BioAssay AID602363 (Broad Institute, 2012)
# Only a part is listed here, and it is no random draw. Activity calls are given as the source filed them.
# Experiment: modulators of yeast start codon fidelity, primary screen, whole organism, S. cerevisiae, single point, plate reader (AID 602363);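 further: firefly luciferase made from a UUG start codon reports start codon fidelity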
# Details: S. cerevisiae UUG-firefly luciferase reporter, luminescence/redox ratio; at 18.7 µM; hits give high values
row,Structure (SMILES),activity score
1,O=C1CCN(Cc2ccccc2)CC1,inactive: 8.74%
2,CC(C)(C)n1nnnc1C(c1ccccc1)N1CCC(n2c(=O)[nH]c3ccccc32)CC1 (stereo unspecified),inactive: 6.59%
3,COc1ccc(NC2CCN(CCc3ccccc3)CC2)c(OC)c1,inactive: -12.4%
4,CCOC(=O)N1CCC(Nc2ccc(F)cc2)CC1,inactive: -11.4%
5,O=C(NCC1(N2CCCCC2)CCCCC1)c1ccc(F)cc1,inactive: 1.01%
6,O=P1(N(CCCl)CCCl)SCCCS1,inactive: -8.16%
7,CCCCn1nnnc1C(c1cc2ccccc2o1)N1CCC(n2c(=O)[nH]c3ccccc32)CC1 (stereo unspecified),inactive: -8.99%
8,CCCCOc1ccc(C(=O)NCC2(N3CCOCC3)CCCCC2)cc1,inactive: -9.25%
9,O=c1[nH]c2ccccc2n1C1CCN(C(c2ccccc2)c2nnnn2C2CCCCC2)CC1 (stereo unspecified),inactive: 7.79%
10,O=c1[nH]c2ccccc2n1C1CCN(C(c2cccc3ccccc23)c2nnnn2C2CCCC2)CC1 (stereo unspecified),inactive: -18.7%
11,COc1cc(C(=O)NCC2(N(C)C)CCCCC2)ccc1OC(F)F,inactive: -6.96%
12,CCOC(=O)N1CCC(Nc2cccc(C)c2)CC1,inactive: -9.16%
13,CCCCn1nnnc1C(c1cccs1)N1CCC(n2c(=O)[nH]c3ccccc32)CC1 (stereo unspecified),inactive: -12.9%
14,O=C(NCC1(N2CCCCC2)CCCCC1)c1cccs1,inactive: 6.81%
15,CCCCn1nnnc1C(CC)N1CCC(n2c(=O)[nH]c3ccccc32)CC1 (stereo unspecified),inactive: -7.95%
16,O=C(NCC1(N2CCCCC2)CCCCC1)c1ccc(=O)[nH]c1,inactive: -8.38%
17,CCC(c1nnnn1C1CCCC1)N1CCC(n2c(=O)[nH]c3ccccc32)CC1 (stereo unspecified),inactive: 7.5%
18,CC(C)(C)OC(=O)N1CCC(N(C(=O)c2ccccc2)c2ccc(F)cc2)CC1,inactive: 5.88%
19,COc1ccc(C(=O)NCC2(N3CCCCC3)CCCCC2)cc1,inactive: -17.8%
20,Cc1cccc(NC2(C#N)CCN(Cc3ccccc3)CC2)c1,inactive: -8.47%
21,CSc1ccccc1C(=O)NCC1(N2CCCCC2)CCCCC1,inactive: -22.6%
22,Cc1cc(C)cc(N(C(=O)c2ccccc2)C2CCN(C(=O)OC(C)(C)C)CC2)c1,inactive: 5.12%
23,O=c1[nH]c2ccccc2n1C1CCN(C(c2ccccc2OC(F)(F)F)c2nnnn2C2CCCCC2)CC1 (stereo unspecified),inactive: -7.11%
24,O=C(NCC1(N2CCCCC2)CCCCC1)c1ccc(Cl)nc1,inactive: -17.9%
25,CCCCn1nnnc1C(c1ccc(OC)cc1)N1CCC(n2c(=O)[nH]c3ccccc32)CC1 (stereo unspecified),inactive: 1.13%
26,CCOC(=O)N1CCC(Nc2ccc(OC)cc2)CC1,inactive: 4.09%
